{"source": "patent US20160183564A1", "about": "(priority 2013, published 2016)", "test_system": "VFA production", "settings": "dose 0.005% DM", "note": "Only a part of the results on these compounds is given; other tests are left out.", "data": [{"smiles": "O=[N+]([O-])OCCCO[N+](=O)[O-]", "values": [{"measurement": "VFA profile (as percentage of total VFA) ace.", "setting": "acetate", "value": "59 percentage of total VFA"}, {"measurement": "VFA profile (as percentage of total VFA) But.", "setting": "butyrate", "value": "6 percentage of total VFA"}, {"measurement": "VFA profile (as percentage of total VFA) Prop.", "setting": "propionate", "value": "34 percentage of total VFA"}]}]}
